Source: paper PMC10982999, “Structure-Guided Design and Optimization of Covalent VHL-Targeted Sulfonyl Fluoride PROTACs” (Journal of Medicinal Chemistry, 2024)

Experiments:
[1] = molecular target: T1, BRD4 (HEK293 HiBiT-BRD4 Cln3 cells) (Homo sapiens, UniProt O60885); type: cell-based
[2] = molecular target: T1, BRD4 (HEK293 HiBiT-BRD4 Cln3 cells); experiment: BRD4 HiBiT degradation assay; details: VH032 25 or 50 μM, 6 h

Cc1ncsc1-c1ccc(CNC(=O)[C@@H]2C[C@@H](O)CN2C(=O)[C@@H](NC(=O)COCCOCCOCCNC(=O)C[C@@H]2N=C(c3ccc(Cl)cc3)c3c(sc(C)c3C)-n3c(C)nnc32)C(C)(C)C)cc1 [MZ-1, reference compound]
relative decrease in degradation activity after washout [1]: 48%
BRD4 degradation in presence of competing VH032 [2]: significantly more affected
